Molecular target: T1, Phosphatidylinositol 4,5-bisphosphate 3-kinase catalytic subunit delta isoform (Homo sapiens, UniProt O00329)
T1 sequence (O00329 whole entry): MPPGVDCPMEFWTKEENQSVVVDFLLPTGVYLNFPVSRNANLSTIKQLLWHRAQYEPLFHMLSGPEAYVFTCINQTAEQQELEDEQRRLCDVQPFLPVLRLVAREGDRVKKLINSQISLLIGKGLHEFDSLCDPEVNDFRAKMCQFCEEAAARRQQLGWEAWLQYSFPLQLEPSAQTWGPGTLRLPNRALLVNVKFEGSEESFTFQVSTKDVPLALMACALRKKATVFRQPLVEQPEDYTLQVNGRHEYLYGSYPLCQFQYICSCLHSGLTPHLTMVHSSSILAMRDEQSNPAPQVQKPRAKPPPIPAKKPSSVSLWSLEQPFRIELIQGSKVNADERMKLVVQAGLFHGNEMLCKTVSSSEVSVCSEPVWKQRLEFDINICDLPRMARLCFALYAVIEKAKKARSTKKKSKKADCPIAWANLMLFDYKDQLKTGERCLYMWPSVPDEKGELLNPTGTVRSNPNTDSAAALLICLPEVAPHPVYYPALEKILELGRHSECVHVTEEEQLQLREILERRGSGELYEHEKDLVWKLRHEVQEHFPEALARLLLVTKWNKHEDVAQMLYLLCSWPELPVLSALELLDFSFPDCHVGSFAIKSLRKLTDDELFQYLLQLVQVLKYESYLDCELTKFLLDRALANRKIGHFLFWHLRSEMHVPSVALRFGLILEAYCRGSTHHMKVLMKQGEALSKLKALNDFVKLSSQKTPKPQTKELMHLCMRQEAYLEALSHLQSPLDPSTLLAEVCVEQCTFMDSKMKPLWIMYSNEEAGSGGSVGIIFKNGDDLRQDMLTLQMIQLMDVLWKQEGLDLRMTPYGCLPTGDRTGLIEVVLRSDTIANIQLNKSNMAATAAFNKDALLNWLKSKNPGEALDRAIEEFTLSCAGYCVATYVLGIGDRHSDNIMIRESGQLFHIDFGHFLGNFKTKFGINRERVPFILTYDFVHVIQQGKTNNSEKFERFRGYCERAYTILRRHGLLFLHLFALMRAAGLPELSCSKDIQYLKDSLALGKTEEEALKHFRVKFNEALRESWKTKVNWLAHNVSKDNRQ
Test: PI3Kdelta Scintillation Proximity A3 Assay
Text: [γ-33P]ATP (10 mCi/mL) was purchased from Perkin-Elmer (Waltham, Mass.). Lipid kinase substrate, D-myo-Phosphatidylinositol 4,5-bisphosphate (PtdIns(4,5)P2)D (+)-sn-1,2-di-O-octanoylglyceryl, 3-O-phospho linked (PIP2), CAS 204858-53-7, was purchased from Echelon Biosciences (Salt Lake City, Utah). PI3Kδ (p110δ/p85α) was purchased from Millipore (Bedford, Mass.). ATP, MgCl2, DTT, EDTA, MOPS and CHAPS were purchased from Sigma-Aldrich (St. Louis, Mo.). Wheat Germ Agglutinin (WGA) YSi SPA Scintillation Beads was purchased from GE healthcare life sciences (Piscataway, N.J.).The kinase reaction was conducted in polystyrene 384-well matrix white plate from Thermo Fisher Scientific in a final volume of 25 μL. Inhibitors were first diluted serially in DMSO and added to the plate wells before the addition of other reaction components. The final concentration of DMSO in the assay was 0.5%. The PI3K assays were carried out at room temperature in 20 mM MOPS, pH 6.7, 10 mM MgCl2, 5 mM DTT and CHAPS 0.03%. Reactions were initiated by the addition of ATP, the final reaction mixture consisted of 20 μM PIP2, 20 μM ATP, 0.2 μCi [γ-33P] ATP, 4 nM PI3Kδ. […] After the plate sealing, plates were shaken overnight at room temperature and centrifuged at 1800 rpm for 10 minutes, the radioactivity of the product was determined by scintillation counting on Topcount (Perkin-Elmer). […]

**Q.** With `CCOc1c(C(C)n2ccc(=O)c3c(N)ncnc32)cc(Cl)c(C)c1-c1ccc(C(=O)N(C)C)cc1` (stereo unspecified) [US10376513, Example 36] as the compound, how does the IC50 read?
**A.** The IC50 was under 10 nM.
